Source: publication PMC7950132 (Molecular & Cellular Proteomics : MCP, 2021)

Molecular target: T1, ELOB/C-CUL5(NEDD8)-RBX2 (human | mouse, UniProt Q15370 1-118; Q15369 17-112; Q93034 1-780; Q9WTZ1 1-113; Q15843 1-76, NEDD8 attached at K724)
T1 construct: elongin B, human, full-length; elongin C, human, residues 17-112; cullin 5, human; ring box protein 2 (RBX2), mouse; NEDD8, human, conjugated to CUL5; NEDD8 is covalently linked to CUL5 K724; Ni-NTA capture came before the cleavage; also called neddylated CUL5 complex; neddylated CRL; source: E. coli BL21, CUL5/RBX2/ELOB/C coexpressed, neddylated in mixed lysates, purified (Ni-NTA, SEC); not …
Assay: SEC; ARIH2 mixed with an equimolar amount of ELOB/C-CUL5(NEDD8)-RBX2 or ELOB/C-CUL5-RBX2, separated by size exclusion; fractions on SDS-PAGE
Conditions: both partners purified

- binding result: binds
B1: Ariadne RBR E3 ubiquitin protein ligase 2 (ARIH2) (enzyme, human, UniProt O95376 1-493, looked up)
chain: MSVDMNSQGSDSNEEDYDPNCEEEEEEEEDDPGDIEDYYVGVASDVEQQGADAFDPEEYQFTCLTYKESEGALNEHMTSLASVLKVSHSVAKLILVNFHWQVSEILDRYKSNSAQLLVEARVQPNPSKHVPTSHPPHHCAVCMQFVRKENLLSLACQHQFCRSCWEQHCSVLVKDGVGVGVSCMAQDCPLRTPEDFVFPLLPNEELREKYRRYLFRDYVESHYQLQLCPGADCPMVIRVQEPRARRVQCNRCNEVFCFKCRQMYHAPTDCATIRKWLTKCADDSETANYISAHTKDCPKCNICIEKNGGCNHMQCSKCKHDFCWMCLGDWKTHGSEYYECSRYKENPDIVNQSQQAQAREALKKYLFYFERWENHNKSLQLEAQTYQRIHEKIQERVMNNLGTWIDWQYLQNAAKLLAKCRYTLQYTYPYAYYMESGPRKKLFEYQQAQLEAEIENLSWKVERADSYDRGDLENQMHIAEQRRRTLLKDFHDT
notes: ARIH2, human, codon-optimised synthetic gene; also called ARIH2 RBRL; source: E. coli BL21, purified (Ni-NTA, SEC); not shown: His6, N-terminal, cleaved; MBP, N-terminal, cleaved
